{"source": "patent US9023842B2", "about": "“Benzodiazepine bromodomain inhibitor” (priority 2009, dated 2015)", "tested_on": "Balb/c male mice given a lethal dose of LPS", "settings": "15 mg/kg LPS i.p., compound 10 mg/kg intravenously ninety minutes later"}
{"compound": "CCNC(=O)C[C@@H]1N=C(c2ccc(Cl)cc2)c2cc(OC)ccc2-n2c(C)nnc21", "note": "[Example 1, 2-[(4S)-6-(4-Chlorophenyl)-1-methyl-8-(methyloxy)-4H-[1,2,4]triazolo[4,3-a][1,4]benzodiazepin-4-yl]-N-ethylacetamide]", "values": [{"measurement": "Animals surviving at 4 days, percent", "value": "(52%)"}, {"measurement": "Numbers of animals surviving at 4 days (summed across multiple repeat experiments)", "setting": "survivors/total", "value": "24/56"}]}
